Only a part of the results on these compounds is given; other tests are left out.
Target: Cloned Human Serotonin Receptor, Subtype 7 (h5HT7), expressed in CHO cells (Homo sapiens, UniProt P34969)
Test: Radioligand binding, [125I]LSD, Flashplate
Conditions: compound at 10^−6 M; radioligand [125I]LSD 0.82 nM
Method: Radioligand binding assays were performed using the Cloned Human Serotonin Receptor, Subtype 7 (h5HT7), expressed in CHO cells, coated on Flashplate (Basic FlashPlate Cat.: SMP200) from PerkinElmer (Cat.: 6120512). The protocol assay was essentially the recommended protocol in the Technical Data Sheet by PerkinEmer Life and Analytical Sciences. The Mass membrane protein/well was typically 12 μg and the Receptor/well was about 9-10 fmoles. The Flashplate were let equilibrate at room temperature for one hour before the addition of the components of the assay mixture. The binding buffer was: 50 mM Tris-HCl, pH 7.4, containing 10 mM MgCl2, 0.5 mM EDTA and 0.5% BSA. The radioligand was [^125I]LSD at a final concentration of 0.82 nM. Nonspecific binding was determined with 50 μM of Clozapine. The assay volume was 25 μl. […] The radioactivity were quantified by liquid scintillation spectrophotometry (Wallac 1450 Microbeta Trilux) with a count delay of 4 minutes prior to counting and a counting time of 30 seconds per well. Competition binding data were analyzed by using the LIGAND program (Munson and Rodbard, LIGAND: A versatile, computerized approach for characterization of ligand-binding systems. Anal. Biochem. 107: 220-239, 1980) and assays were performed in triplicate determinations for each point.

By UniProt entry, the sequences of proteins in these tests, tags left out.
UniProt P34969, whole entry: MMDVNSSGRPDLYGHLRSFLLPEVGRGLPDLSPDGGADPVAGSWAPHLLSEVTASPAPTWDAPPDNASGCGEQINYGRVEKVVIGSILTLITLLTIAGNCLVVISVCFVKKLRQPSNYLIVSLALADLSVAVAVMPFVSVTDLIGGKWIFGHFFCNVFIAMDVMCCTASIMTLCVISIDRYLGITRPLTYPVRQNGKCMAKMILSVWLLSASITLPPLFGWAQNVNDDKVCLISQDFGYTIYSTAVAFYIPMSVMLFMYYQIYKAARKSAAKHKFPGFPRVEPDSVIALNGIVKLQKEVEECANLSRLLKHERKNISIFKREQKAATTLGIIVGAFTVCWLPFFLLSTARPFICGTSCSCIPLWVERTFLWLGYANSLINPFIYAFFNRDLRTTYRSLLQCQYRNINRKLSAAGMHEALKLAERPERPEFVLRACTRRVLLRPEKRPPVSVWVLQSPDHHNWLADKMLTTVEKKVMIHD

O=c1[nH]c2ccccc2n1C1CCN(Cc2ccc(F)c(F)c2)CC1
%-Inhib. (10^−6 M): 61.2%

— US20110124657A1, “METHOD FOR SCREENING OF 5HT7 RECEPTOR LIGANDS BASED ON A NEW PHARMACOPHORE MODEL AND A DESCRIPTOR'S PROFILE FILTER” (LABORATORIOS DEL DR. ESTEVE, S.A., priority 2008, published 2011)
